Data as given in article PMC10510324, “A Biomimetic C-Terminal Extension Strategy for Photocaging Amidated Neuropeptides” (Journal of the American Chemical Society, 2023).

Sequences of proteins named here, by UniProt entry; tags and fusion partners are left off.
UniProt P25103, whole entry: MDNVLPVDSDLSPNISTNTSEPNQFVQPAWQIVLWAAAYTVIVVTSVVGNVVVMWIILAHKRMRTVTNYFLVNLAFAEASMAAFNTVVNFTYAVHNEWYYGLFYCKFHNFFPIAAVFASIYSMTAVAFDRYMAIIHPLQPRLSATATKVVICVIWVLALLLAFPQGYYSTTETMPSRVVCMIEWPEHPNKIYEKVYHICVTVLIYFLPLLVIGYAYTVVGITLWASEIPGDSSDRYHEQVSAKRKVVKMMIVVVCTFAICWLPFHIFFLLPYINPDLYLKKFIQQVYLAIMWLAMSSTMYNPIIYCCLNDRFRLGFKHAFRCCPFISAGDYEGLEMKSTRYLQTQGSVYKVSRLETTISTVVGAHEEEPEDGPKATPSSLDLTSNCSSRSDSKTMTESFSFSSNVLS

Key:
[1] = test system: mu and delta opioid receptors (MOR and DOR); experiment: Enk-evoked outward (GIRK) current in hippocampal PV interneurons with CCK(8S)-NPP uncaging; format: cell-based, mouse; conditions: Enk 1 μM bath application; n = 5 cells from 2 mice; mean ± SEM
Method: Data are expressed as the mean ± SEM. […] Data are expressed as the mean ± SEM. […] Data are expressed as the mean ± SEM. […] Data are expressed as the mean ± SEM.
Brain slice preparation. All procedures were performed in accordance with protocols approved by the University of California San Diego Institutional Animal Care and Use Committee (IACUC) following guidelines described in the US National Institutes of Health Guide for Care and Use of Laboratory Animals (UCSD IACUC protocol S16171). Experiments were conducted using mice of both sexes and the data were combined. From Vip Cre; Rosa26-lsl-tdTomato (Ai14), mouse age ranged from P15-30. From Pvalb Cre; Rosa26-lsl-tdTomato (Ai14), mouse age ranged from P20-35. From Chat Cre; Rosa26-lsl-tdTomato (Ai14), mouse age ranged from P40-100. Mice were anesthetized with isoﬂurane and decapitated, and the brain was removed, blocked, and mounted in a VT1000S vibratome (Leica Instruments). For recordings from cortex and striatum, coronal slices (300 μm) were prepared, and for hippocampus, horizontal slices

[2] = molecular target: T1, neurokinin 1 receptor (NK1R) (Homo sapiens, UniProt P25103); experiment: GloSensor cAMP assay of GPCR activation, NK1R (agonism and antagonism); format: cell-based
T1 construct: host or cells: HEK293T

## [Leu]5-enkephalin
[1]
  percent current loss 5 min after Enk addition, Enk only: 31.0 ± 19.8

## SP-NPP-ds1: separated diastereomer of NPP-caged substance P
[2]; all concentrations tested (up to 10 μM)
  activity at the NK1R: devoid of activity
[2]; candidate antagonist 1 μM, 5 min before agonist SP
  antagonism of NK1R: do not antagonize

## SP-NPP-ds2: separated diastereomer of NPP-caged substance P
[2]; highest concentration tested, 10 μM, normalized to SP 300 nM
  activation of the NK1R: ~50%
